Test: Lipid monolayer (Langmuir balance) insertion
Set-up: species or system Clostridium perfringens

CTAB
insertion into lipid monolayer (initial surface pressure of 30 mN/m, 5 times MIC): can therefore be inserted | critical insertion pressure Pc (injected at 5 times their MIC): 46.8 mN/m
